## Measured affinities in a library of Ab-14 light chain variants

Data: MIT Lincoln Laboratory AlphaSeq set, Li et al. 2023, doi:10.1038/s41467-023-39022-2, as distributed in FLAb.

The target is the same throughout: PDVDLGDISGINAS, from the HR2 region of SARS-CoV-2 spike.

The variants keep the heavy chain, the linker and the frameworks of Ab-14 (scFv order VH, a (GGGGS)3 linker, VL).
VH: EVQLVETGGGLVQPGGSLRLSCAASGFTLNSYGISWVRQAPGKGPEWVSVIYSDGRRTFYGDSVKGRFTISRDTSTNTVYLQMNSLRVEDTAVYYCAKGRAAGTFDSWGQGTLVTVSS
VL: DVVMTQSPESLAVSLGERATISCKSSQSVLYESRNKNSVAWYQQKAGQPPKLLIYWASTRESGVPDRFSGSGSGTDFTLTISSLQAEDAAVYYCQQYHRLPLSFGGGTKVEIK

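Phage display of a naive human antibody library on the peptide gave the parent. Designed CDR sequences, proposed from the first random library and measured here. Several design methods are mixed in this list. Affinity was read by AlphaSeq, a pooled yeast mating assay with surface-displayed partners. Mating (16 h, 30 °C) was followed by selection of diploids and sequencing of their barcodes. The ratio of observed to expected reads was calibrated, replicate by replicate, on BCL2-family standards whose Kd was known from biolayer interferometry. Mating was done six times.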

The parent's light chain CDRs are KSSQSVLYESRNKNSVA, WASTRES, QQYHRLPLS; each variant's own CDRs replace them letter for letter. The read-out is the apparent dissociation constant on a log10 scale (nM): the lower, the stronger. A mean of the replicates is given; it leaves out those without a signal. "not detected" means that the variant was in the library but no mating with the target was seen in any replicate; the authors take this as a sign of poor binding, and no number exists. The range of this assay differs from that of the first round, and the authors advise against merging the two. The authors averaged sequences with at least three values out of six and counted those with two or fewer as poor binders. Of ten entries with the parent sequence, four were seen in most replicates (averages 0.34 to 2.37), three in one and three in none, so single entries are noisy. As a blank, each scFv also met three strains without target: over all light chain designs, 4% of these pairings were detected, typically at 2.64 and seldom below 1.59.

CDR-L1,CDR-L2,CDR-L3,"mean, log10 nM",replicates with signal
SLVQEKSVGDANMGNIA,AADQLSV,QQYNRLPLS,0.41,6/6
KLSQSVLYEQRVKNSVA,NASTRES,QQYHRLPLS,0.18,6/6
KSSQSVLQESRNKNSVA,WASTRES,QQYHVLPLQ,1.53,1/6
KVEQSVLYESRNKNSVA,NASTRES,QQYHRLPLS,-0.11,6/6
KVQQSVPYEDRNKNSVA,EASTRCS,QDYHRLPLS,0.28,6/6
KSSQSWGYESRNKNSVA,DASTRES,QQYHRLPLS,-0.36,6/6
KLSGSELGESRNKNSVA,SADTRLM,QQYHRLPLS,0.44,6/6
KLSQSDLYESRNKNSVA,NASTRYS,QQYHRLPLS,0.01,6/6
TLGIQPTEMRDNKHAVA,DDEQRDR,QQYMRLPLS,0.29,6/6
KSSQSVLYMERNFNSVA,WASTRES,QQYHRLPLS,not detected,0/6
NISESMYFQSRMKNNIA,EMSTRER,QHYHRLPLS,0.59,6/6
KSSQSVLVESRNANSVA,WASTRES,QQYHRLPLS,1.24,6/6
KLSYSVRMESFNKDNVA,ENSTREA,QDYHRLPLS,2.25,5/6
KISMATTFESRNHNSVA,ENSTREQ,QSYHRLPLS,3.10,5/6
KMAQGWEYESRNKNSVA,NASVRES,QQYHRLPLS,0.04,6/6
KNSQSFLMESRNKNSVA,SASTRES,QQYHRLPLS,2.22,1/6
KLSQSVLYESRNKNSVA,EASTRCM,QQYHRLPLS,-0.15,6/6
KSSQSVEYESRNKNSVA,WASTRES,QQYHWLPLS,not detected,0/6
KFSQKVLYEGRMKNSVA,NASTRES,QQYHRLPLS,0.03,6/6
KLSQSELYESRNKNSVA,NASYRMS,QQYHRLPLS,-0.35,6/6
KSLQSGLYESRNKNNVA,HASTRED,QQYARLPLS,-0.46,6/6
KSSQSVLYESRNQNSVA,KASTRES,QQYHRLPLS,0.67,5/6
IVSQLMLWGHLAKNSIA,EAVTRYN,QQYDRLPLM,not detected,0/6
HLLQTVMYGQTRKNSVA,HAVTREN,QQYHRLPLI,1.89,3/6
ILSQMLLTAGNKHNSVA,QANYREE,QQYHRLPLS,1.29,6/6
KFRQSTLYESRNKNSVA,GASTRES,QQYHRLPLS,0.49,6/6
KIGFTLNMLEHKQNNVA,DLVTREQ,QQYHRLPLS,1.11,6/6
MIAGSMESQEANQAPVA,SATCKEP,QQYSRLPLM,0.57,6/6
KLSNSVWMESRNKNQVA,EASKRES,QQYHRLPLS,-0.01,6/6
KDSQSVLYESRNKNSVA,WASTRES,QQYHRLPFS,1.56,6/6
KLSQSVEYESRNKNSVA,EASTRES,QQYHRLPLS,-0.21,6/6
QTTPFGIQKDEESNNVA,HDSVRAE,QQYFRLPLV,0.82,6/6
KLSQSVLYESRNKNSVA,HGSTRES,QQYHRLPLS,0.17,6/6
KLPLATMQESVSKNNVA,ELSTRGS,QQYHRLPLA,1.00,6/6
KVMQSVLGLQRAQNSVA,EASTRES,QQYHRLPLS,-0.23,6/6
KSSQSVLYGSRNKNSVA,WASTRES,QQYHRLPLS,2.28,6/6
SMGYALFHEDAKKKSIA,ENDVRVY,QQYAKLPLT,-0.11,6/6
NISYLQGLSTNSVNNVA,QASVRAP,QYYQRLPLC,-0.08,6/6
KVSQSVLYESRNKNSVA,NASTRLS,QQYHRLPLS,-0.03,6/6
KMTEQLLNGEREPSNIA,AGVIGSD,QQYHRLPLI,1.22,6/6
KIAATSLYEQGAANSVA,QNSTRES,QQYHRLPLS,0.78,6/6
KSSQSWLYFSRNKNSVA,NASTRES,QQYHRLPLS,1.18,3/6
KSQQSVLYESRNKNNVA,QASTRED,QQYARLPLS,-0.32,6/6
HMSMLTLTGSRQRNSVA,QMTTREN,QQYDRLPLM,0.35,6/6
KSSISELIESRNKNSVA,EASTRES,QQYHRLPLS,0.39,6/6
KSSQSVLYESRNKNSVA,GASCRES,QQYDSLPLS,2.14,6/6
KSSQSKMNESRNKNSVA,WASTRES,QQYHRLPLA,2.26,1/6
KMMQSQLYEERASNAVA,HASQRES,QQYHRLPLS,0.17,6/6